A word on the Ki: it is the dissociation constant of the complex between target and ligand, obtained from inhibition or displacement.

Results on one molecule are retold here after patent US20040143095A1 (RESEARCH DEVELOPMENT FOUNDATION, published 2004).

The test deals with T1, human CRF receptor type 1 (human, UniProt P34998 24-415).
T1 construct: whole, on cells; also called hCRF-R1; CRF-R1
T1 sequence (looked up): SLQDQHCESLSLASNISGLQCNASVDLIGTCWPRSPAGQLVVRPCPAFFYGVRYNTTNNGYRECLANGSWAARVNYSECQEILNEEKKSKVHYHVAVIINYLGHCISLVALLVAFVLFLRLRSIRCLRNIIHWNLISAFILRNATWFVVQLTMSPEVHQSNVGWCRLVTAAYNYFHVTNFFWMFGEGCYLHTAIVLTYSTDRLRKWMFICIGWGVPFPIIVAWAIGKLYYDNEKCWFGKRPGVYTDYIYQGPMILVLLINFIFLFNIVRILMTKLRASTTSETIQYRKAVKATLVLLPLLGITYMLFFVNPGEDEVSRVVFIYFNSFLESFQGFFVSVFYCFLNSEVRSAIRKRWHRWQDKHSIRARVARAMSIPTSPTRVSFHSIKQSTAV
The test can be described thus: radioligand displacement ([125I-Tyr0,Glu1,Nle17]-sauvagine), CHO membranes. Background: Displacement assays read how much labelled ligand stays bound in the presence of the test substance.

For the molecule DDPPLSIDLTFHLLRTLLELARTQSQRERAEQNRIIFDSV (peptide, UniProt P55090 81-120, looked up, mature; also called Ucn; rUcn) [Urocortin (rat)], affinity was put at a Ki of 0.32 nM.
